The text below walks through data of BindingDB's records for doi:10.1002/cbic.200800304 (Research Institute, Hospital For Sick Children, 2008).

The IC50 is the point on the concentration scale where inhibition reaches its midpoint. Read a high IC50 as weaker potency in that assay.

In this test the target is T1, Lysosomal acid glucosylceramidase (Homo sapiens, UniProt P04062).
T1 sequence (P04062 whole entry): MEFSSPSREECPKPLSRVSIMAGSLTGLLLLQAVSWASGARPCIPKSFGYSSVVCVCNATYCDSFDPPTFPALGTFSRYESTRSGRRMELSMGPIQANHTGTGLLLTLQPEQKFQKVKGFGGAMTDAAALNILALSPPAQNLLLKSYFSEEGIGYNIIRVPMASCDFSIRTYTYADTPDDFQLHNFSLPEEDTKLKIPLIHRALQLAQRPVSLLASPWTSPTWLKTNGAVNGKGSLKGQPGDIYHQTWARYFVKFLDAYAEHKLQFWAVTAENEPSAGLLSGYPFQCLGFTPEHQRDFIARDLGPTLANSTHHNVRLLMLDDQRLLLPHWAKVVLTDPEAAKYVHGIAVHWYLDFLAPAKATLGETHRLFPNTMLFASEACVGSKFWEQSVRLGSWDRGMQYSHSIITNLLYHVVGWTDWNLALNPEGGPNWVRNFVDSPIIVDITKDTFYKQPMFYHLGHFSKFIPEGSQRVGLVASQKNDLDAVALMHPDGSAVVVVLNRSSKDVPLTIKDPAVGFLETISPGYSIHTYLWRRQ
Put plainly: Inhibiton Assay. The following applies: pH 5.5; 37 °C. On the procedure:
Beta-glucocerebrosidase (GCase) activity was measured by release of 4-methylumbelliferyl fluorophore from MUClc.

Structures are written as SMILES.

Compound `Cc1ccccc1C(=O)Nc1ccncc1` [2-methyl-N-pyridin-4-yl-benzamide, 2a] yielded an IC50 of 80 µM.
